Our source for the TD50 values is ChEMBL document CHEMBL4602726, “Discovery of the First Vitamin K Analogue as a Potential Treatment of Pharmacoresistant Seizures” (J Med Chem, 2020).

The data set can be described thus: Toxicity in CF1 mouse assessed as induction of motor impairment during acute (1 hr) observation period by rotarod assay. The note with it: in vivo. Summed up: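 Male CF-1 mice, ip dosing in miglyol 840/DMSO (95%/5%), up to 800 mg/kg. Rotarod at 6 rpm done 1 h after dosing, on the same animals just before 6 Hz testing. Falling three times within one minute scored as impaired; animals also inspected visually.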

Usually TD50 stands for the dose at which the toxic effect under study appears in half of the subjects. Take `CCCC(CCC)C(=O)O` [VALPROIC ACID]: the TD50 at 1 h was 390 mg/kg.
